{
  "source": "the supplement of paper PMC12420376",
  "key": {"KURAMOCHI": {"system": "KURAMOCHI", "assay": "drug sensitivity score (DSS2) on cancer cell count; higher = more sensitive; extreme values may be limits of the assay", "settings": "72 h", "outline": "(§1)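 Cancer cell counts came from 10× images (4 fields) of fixed cells immunostained for CK8/18 with Hoechst. The ovarian cancer cells had been grown alone or in 1:1 direct co-culture with lung or skin fibroblasts on 384-well plates pre-spotted acoustically with 528 approved and investigational compounds at 5 concentrations, then treated for 72 h. Breeze was used to derive a drug sensitivity score from logistic fits of the data.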"}, "OVCAR8": {"system": "OVCAR8", "assay": "drug sensitivity score (DSS2) on cancer cell count; higher = more sensitive; extreme values may be limits of the assay", "settings": "72 h", "outline": "as §1"}, "[1]": {"settings": "co-cultured fibroblast: BJHTERT"}, "[2]": {"settings": "co-cultured fibroblast: none (monoculture)"}},
  "data": [
    {"smiles": "NCc1ccc(OCCCc2sc(-c3ccc4c(c3)/C(=N/Nc3nc5ccccc5s3)CCC4)nc2C(=O)O)cc1", "note": "[WEHI-539]", "values": [
      {"measurement": "drug sensitivity score", "setting": "KURAMOCHI; [1]", "value": 1.9, "unit": "DSS"},
      {"measurement": "drug sensitivity score", "setting": "KURAMOCHI; co-cultured fibroblast: WI38", "value": 0, "unit": "DSS"},
      {"measurement": "drug sensitivity score", "setting": "KURAMOCHI; [2]", "value": 1.1, "unit": "DSS"},
      {"measurement": "drug sensitivity score", "setting": "OVCAR8; [1]", "value": 0, "unit": "DSS"},
      {"measurement": "drug sensitivity score", "setting": "OVCAR8; co-cultured fibroblast: WI38", "value": 0.9, "unit": "DSS"},
      {"measurement": "drug sensitivity score", "setting": "OVCAR8; [2]", "value": 0.1, "unit": "DSS"}
    ]}
  ]
}
